## scFv variants of Ab-14 (heavy chain) against a SARS-CoV-2 spike peptide

The target is the same throughout: PDVDLGDISGINAS, from the HR2 region of SARS-CoV-2 spike.

Parent: Ab-14, a human scFv built as VH, a (GGGGS)3 linker, VL. Only the CDRs of the heavy chain vary.
VH: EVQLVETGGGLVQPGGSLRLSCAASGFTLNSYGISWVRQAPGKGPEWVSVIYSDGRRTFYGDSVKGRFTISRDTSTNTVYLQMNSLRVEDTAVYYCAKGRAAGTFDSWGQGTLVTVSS
VL: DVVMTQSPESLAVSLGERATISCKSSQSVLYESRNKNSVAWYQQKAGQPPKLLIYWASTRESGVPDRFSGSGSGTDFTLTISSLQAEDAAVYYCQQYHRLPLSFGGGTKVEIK

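The parent was found by panning a naive human phage display library on the peptide. These sequences belong to a second round, designed from the earlier measurements on random variants of the parent. Their group label is 14H_GP_HC (GP: Gaussian process model; HC: hill climbing; a sequence that several methods proposed may carry one label only). Affinity was read by AlphaSeq, a pooled yeast mating assay with surface-displayed partners. Pairs that bind mate more often; barcode pairs of the diploids are counted by sequencing. A regression on co-assayed BCL2-family reference pairs converts the normalised counts of each replicate to an apparent Kd. Mating was done six times.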

The parent's heavy chain CDRs are GFTLNSYGIS, VIYSDGRRTFYGDSVK, GRAAGTFDS; each variant's own CDRs replace them letter for letter.
The read-out is the apparent dissociation constant on a log10 scale (nM): the lower, the stronger.
The mean shown is taken over the replicates in which the pair was detected.
Where no diploid with the target was found in that replicate, the entry reads "nd": below detection, most likely a poor binder, though not proof of it.
The authors' rule: three or more of the six replicates give a measured affinity, fewer mean a poor binder.
Of ten entries with the parent sequence, four were seen in most replicates (averages 0.34 to 2.37), three in one and three in none, so single entries are noisy.
The range of this assay differs from that of the first round, and the authors advise against merging the two.
Nonspecific signal, from three strains lacking the peptide, appeared in 1% of pairings of all heavy chain designs, centred on 2.08 (5% of these signals below 0.84); values are not corrected for it. For each scFv, signals with the empty controls are counted beside the result, with their mean in brackets.

CDR-H1	CDR-H2	CDR-H3	log10 Kd, replicates	mean log10 Kd (nM)	signal with controls
GFTLDRYGIS	VIYSDGRRTFYGDSVK	GRTAGTFDS	0.43 / 0.40 / 0.37 / 1.01 / 0.97 / 0.23	0.57	0 of 18
GFSLNDYGIS	VIYSDGRRTFYDDSVK	GRAAGTFIS	nd / nd / nd / nd / nd / nd	nd	0 of 18
GFQLNEYGIS	VIYSDGRRTFYADSVK	GRNAGTFDS	0.12 / 0.09 / -0.02 / 0.27 / -0.35 / 0.15	0.04	0 of 18
GFFLNDYGIS	VIYSDGRRTFYGDSVK	GEAAGTFDS	nd / 0.88 / 2.56 / nd / -0.10 / nd	1.11	0 of 18
GFTLNEYGIS	VIYSDGRRTFYGDSVK	GQIAGTFDQ	0.17 / 0.34 / -0.12 / -0.19 / 0.44 / 0.18	0.14	1 of 18 (3.84)
GFTLNEYGIS	VIYSDGRRTFYGDSVK	GRHAGTFDD	2.77 / 0.47 / 0.82 / 2.89 / 1.41 / 0.87	1.54	0 of 18
GFSLNDYGIS	VIYSDGRRTHYIDSVK	GRAAGTFDS	2.32 / nd / nd / nd / 2.65 / 2.20	2.39	1 of 18 (2.23)
GFTLNEYGIS	VIYSDGRRTFYDDSVK	GRNAGTFDS	nd / nd / nd / nd / nd / nd	nd	0 of 18
GFTLNEYGIS	VIYSDGRRTFYGDSVK	GCIAGTFDK	0.94 / 1.09 / 0.82 / 0.72 / 0.54 / 0.59	0.78	0 of 18
KFGLNEYGIS	VIYSDGRRTFYTDSVK	GRFAGTFDS	nd / nd / nd / nd / nd / nd	nd	0 of 18
GFPLNEYGIS	VIYADGRRTFYGDSVK	GRAAGTFDS	-0.30 / -0.70 / -0.82 / -1.19 / -0.49 / -0.38	-0.65	0 of 18
GFWLNDYGIS	VIYSDGRRTFYGDSVK	GRAALTFDE	nd / nd / nd / nd / nd / nd	nd	0 of 18
GFTLESYGIS	VIYADGRRTFYGDRVK	GRAAGTFKS	nd / nd / nd / nd / nd / nd	nd	0 of 18
GFTLNSYGIS	VIYSDGRRTFYDDSVK	GTVAGTFDS	1.75 / 0.53 / 0.39 / 0.96 / 0.86 / 2.24	1.12	0 of 18
GFSLNEYGIS	VIYSDGRRTFYCDSVK	GTAAGTFDR	1.16 / 1.10 / 0.91 / 0.89 / 1.41 / 0.56	1.00	2 of 18 (2.62)
GFSLNEYGIS	VIYSDGRRTFYGDSVK	GRAAGTFCV	nd / nd / nd / nd / nd / nd	nd	0 of 18
GFDLNSYGIS	VIYSDGRRTFYGDSVK	GRIAGSFNS	nd / nd / 2.58 / nd / 2.72 / nd	2.65	1 of 18 (1.81)
GFDLNSYGIS	VIYSDGRRTFYGDSVK	GRTAGAFCS	2.42 / 0.67 / nd / 1.73 / 0.87 / 1.04	1.35	0 of 18
GFSLNMYGIS	VIYSDGRRTFYQDSVK	GRAAGTFDS	nd / 1.44 / 1.88 / 1.19 / 1.05 / 0.72	1.26	0 of 18
GFTLNEYGIS	VIYSDGRRTMYMDSVK	GRCAGTFDS	nd / nd / nd / nd / nd / nd	nd	0 of 18
GFTLNEYGIS	VIYSDGRRTFYSDSVK	GRLAGTFDT	0.48 / 0.40 / 0.33 / 0.40 / 0.39 / 0.82	0.47	1 of 18 (3.49)
GFTLKEYGIS	VIYSDGRRTFYGDSVK	GRAAVTFDT	nd / nd / nd / nd / nd / nd	nd	0 of 18
GNTLNEYGIS	VIYSDGRRTFYTDSVK	GRLAGTFDS	nd / 0.27 / 0.46 / 0.92 / -0.65 / -0.67	0.07	0 of 18
GFALNSYGIS	VIYSDGRRTFYDDSVK	GQEAGTFDS	nd / nd / nd / nd / nd / nd	nd	0 of 18
GFTLNEYGIS	VIYSDGRRTFYSDSVK	GRAGGTFWS	nd / nd / nd / nd / nd / nd	nd	0 of 18
GFTLNEYGIS	VIYSDGRRTFYKDSVK	GKAAGTFDS	0.23 / -0.06 / -0.43 / 0.19 / -0.14 / 0.47	0.04	0 of 18
GFELNSYGIS	VIYSDGRRTFYWDSVK	GQLAGTFDS	nd / nd / nd / nd / nd / nd	nd	0 of 18
GFLLNDYGIS	VIYSDGRRTFYIDHVK	GKAAGTFDS	nd / nd / nd / 2.40 / 2.07 / nd	2.23	0 of 18
GFTLNDYGIS	VIYSDGRRTFYIDSVK	GRTAGTFIS	nd / nd / nd / nd / nd / nd	nd	0 of 18
GFTLNDYGIS	VIYSDGRRTYYGDSVK	GRTAGTFDS	0.45 / 0.24 / -0.11 / 0.18 / 0.64 / 0.24	0.27	0 of 18
GFWLNSYGIS	VIYSDGRRTFYIDSVK	GRIAGTFDS	nd / nd / nd / nd / nd / nd	nd	0 of 18
GFTLDNYGIS	VIYSDGRRTFYGDSVK	GRTAGTFDS	0.09 / 0.36 / 0.43 / 0.97 / 0.07 / 0.51	0.41	0 of 18
GFTLNEYGIS	VIYSDGRRTAYQDSVK	GRAAGTFVS	nd / nd / nd / nd / nd / nd	nd	0 of 18
GFTLNEYGIS	VIYSDGRRTFYGDSVK	GRMAGTFDV	0.28 / -0.22 / 0.87 / 0.45 / 0.20 / 0.28	0.31	0 of 18
GFTLNSYGIS	VIYSDGRRTAYDDSVK	GQAAGTFDS	nd / 0.49 / 1.10 / 1.61 / 1.01 / 1.55	1.15	0 of 18
GFTLNDYGIS	VIYSDGYRTFYIDSVK	GRAAGTFDS	nd / nd / nd / -0.87 / nd / nd	-0.87	0 of 18
GFDLNSYGIS	VIYSDGRRTFYGDSVK	GRAAGSFRS	0.72 / 0.42 / 0.10 / 0.85 / 0.73 / 0.61	0.57	0 of 18
GFQLNEYGIS	VIYSDGRRTFYGDSVK	GRIAGTFIS	nd / nd / nd / nd / nd / nd	nd	0 of 18
GFWLNSYGIS	VIYADGRRTFYGDSVK	GHAAGTFDS	0.93 / 2.01 / nd / 1.51 / 0.69 / 0.74	1.17	0 of 18
GFTLNEYGIS	VIYSDGRRTFYTDSVK	GREAGTFDF	0.29 / 0.07 / 0.98 / 1.39 / 2.61 / 0.67	1.00	0 of 18
GFTLNDYGIS	VIYSDGRRTAYQDSVK	GRAAGTFVS	0.97 / 0.77 / 1.02 / 1.27 / 1.27 / 0.58	0.98	1 of 18 (3.15)
GFDLNEYGIS	VIYSDGRRTFYGDQVK	GRAAGTFDS	0.67 / 0.04 / 0.80 / 1.90 / 0.99 / 2.36	1.13	0 of 18
GFTLNEYGIS	VIYSDGRRTFYMDDVK	GRFAGTFDS	1.07 / 2.02 / 1.80 / 0.58 / 0.71 / 0.94	1.19	0 of 18

For reference, 6 entries of the list once more:

CDR-H1	CDR-H2	CDR-H3	log10 Kd, replicates	mean log10 Kd (nM)	signal with controls
GFQLNEYGIS	VIYSDGRRTFYADSVK	GRNAGTFDS	0.12 / 0.09 / -0.02 / 0.27 / -0.35 / 0.15	0.04	0 of 18
GNTLNEYGIS	VIYSDGRRTFYTDSVK	GRLAGTFDS	nd / 0.27 / 0.46 / 0.92 / -0.65 / -0.67	0.07	0 of 18
GFWLNSYGIS	VIYADGRRTFYGDSVK	GHAAGTFDS	0.93 / 2.01 / nd / 1.51 / 0.69 / 0.74	1.17	0 of 18
GFTLKEYGIS	VIYSDGRRTFYGDSVK	GRAAVTFDT	nd / nd / nd / nd / nd / nd	nd	0 of 18
GFLLNDYGIS	VIYSDGRRTFYIDHVK	GKAAGTFDS	nd / nd / nd / 2.40 / 2.07 / nd	2.23	0 of 18
GFTLNSYGIS	VIYSDGRRTAYDDSVK	GQAAGTFDS	nd / 0.49 / 1.10 / 1.61 / 1.01 / 1.55	1.15	0 of 18

From the AlphaSeq antibody data of Li et al. 2023 (doi:10.1038/s41467-023-39022-2), copy in the FLAb collection.